According to patent publication US20240245770A1, “COMPOSITIONS AND METHODS FOR TREATING NEUROMUSCULAR DISORDERS” (The Regents of the University of California, priority 2019, published 2024):

System: NK cells
Assay: NK Luminex, cytokine/chemokine/growth factor/ligands secretion
Type: cell-based, human
Protocol: No overall differences in cytokine/chemokine/growth factor/ligands in sorted NK cells of patient activated with IL-2 or IL-2+antiCD16 or IL-2+sAJ2 when compared to healthy twin (Tables 55-58). NK Luminex. NK cells were left untreated, treated with IL-2 (1000 U/mL) or treated with the combination of IL-2 and anti-CD16 mAb (3 μg/ml), or IL-2+sAJ2 (Cells:sAJ2 1:20). After an overnight treatment at 37° C., the supernatants were harvested and the levels of cytokine/chemokine/growth factor/ligands secretion were measured using multiplex luminex assay (Millipore, MA) (Tables 55-58).
NK Luminex. NK cells were treated with IL-2 (1000 U/mL) or treated with the combination of IL-2 and anti-CD16 mAb (3 μg/ml). After an overnight treatment at 37° C., the supernatants were harvested and the levels of cytokine/chemokine/growth factor/ligands secretion were measured using multiplex luminex assay (Table 157).

[1] = H84 JC NK, overnight treatment, supernatant
[2] = H85 TC (healthy twin) NK supernatant
[3] = H85 TC NK, overnight treatment, supernatant
[4] = JC NK cells, overnight treatment, supernatant
[5] = TC NK cells, overnight treatment, supernatant
[6] = WO NK cells, overnight treatment, supernatant

## Recombinant human IL-2
H84 JC (ALS) NK supernatant
  EGF: 48.14 pg/mL
  Eotaxin: 4.6 pg/mL
  FGF2: 5.71 pg/mL
  FIT3L: 4.18 pg/mL
  Fractalkine: 44.23 pg/mL
  GCSF: 31.3 pg/mL
  GMCSF: 3.58 pg/mL
  IFNa2: 20.77 pg/mL
  IFNg: 66.78 pg/mL
  TGFa: 1.14 pg/mL
[1]
  GRO: 131.11 pg/mL
  IL-1Ra: 58.41 pg/mL
  IL-1a: 2.88 pg/mL
  IL-1b: 20.77 pg/mL
  IL-3: 1.23 pg/mL
  IL-4: 2.36 pg/mL
  IL-5: 0.98 pg/mL
  IL-6: 16.69 pg/mL
  IL-7: 46 pg/mL
  IL-8: 106.65 pg/mL
  IL-10: 12.03 pg/mL
  IL-12p40: 3.82 pg/mL
  IL-12p70: 3.28 pg/mL
  IL-13: 3.58 pg/mL
  IL-15: 2.05 pg/mL
  IL-17a: 1.91 pg/mL
  IP-10: 88.6 pg/mL
  L-2: 5630 pg/mL
  MCP1: 68.56 pg/mL
  MCP3: 5 pg/mL
  MDC: 4.9 pg/mL
  MIP1a: 144.7 pg/mL
  MIP1b: 356.57 pg/mL
  PDGF-AB/BB: 299.25 pg/mL
  PDGFaa: 35.16 pg/mL
  Rantes: 1949 pg/mL
  TNFa: 32.7 pg/mL
  TNFb: 2.71 pg/mL
  VEGF: 117.33 pg/mL
  sCD40: 15.53 pg/mL
[2]
  EGF: 90.93 pg/mL
  Eotaxin: 4.95 pg/mL
  FGF2: 5.11 pg/mL
  FIT3L: 4.6 pg/mL
  Fractalkine: 37.25 pg/mL
  GCSF: 19.59 pg/mL
  GMCSF: 3.22 pg/mL
  IFNa2: 13.08 pg/mL
  IFNg: 11.06 pg/mL
  TGFa: 1.09 pg/mL
[3]
  GRO: 101.06 pg/mL
  IL-1Ra: 56.84 pg/mL
  IL-1a: 2.01 pg/mL
  IL-1b: 2.85 pg/mL
  IL-3: 1.15 pg/mL
  IL-4: 2.48 pg/mL
  IL-5: 1.14 pg/mL
  IL-6: 3.22 pg/mL
  IL-7: 4.9 pg/mL
  IL-8: 20.47 pg/mL
  IL-9: 8.45 pg/mL
  IL-10: 3.82 pg/mL
  IL-12p40: 3.82 pg/mL
  IL-12p70: 2.61 pg/mL
  IL-13: 3.82 pg/mL
  IL-15: 1.9 pg/mL
  IL-17a: 2 pg/mL
  IP-10: 157.61 pg/mL
  L-2: 5645 pg/mL
  MCP1: 52.33 pg/mL
  MCP3: 4.26 pg/mL
  MDC: 4.9 pg/mL
  MIP1a: 144.7 pg/mL
  MIP1b: 475.47 pg/mL
  PDGF-AB/BB: 517.51 pg/mL
  PDGFaa: 42.99 pg/mL
  Rantes: 2913 pg/mL
  TNFa: 10.33 pg/mL
  TNFb: 2.85 pg/mL
  VEGF: 118.96 pg/mL
  sCD40: 8.91 pg/mL
[4]
  GCSF: 2.94 pg/mL
  IL-6: 42.5 pg/mL
  IL-17A: 2.34 pg/mL
  Rantes: 859.54 pg/mL
  TNFa: 22.64 pg/mL
[5]
  GCSF: 2.37 pg/mL
  IL-6: 21.79 pg/mL
  IL-17A: 2.38 pg/mL
  Rantes: 1944 pg/mL
  TNFa: 19.74 pg/mL
[6]
  GCSF: 2.51 pg/mL
  IL-6: 3.5 pg/mL
  IL-17A: 2.3 pg/mL
  Rantes: 5684 pg/mL
  TNFa: 7.42 pg/mL
